Assay [1] concerns the target T1, C-C chemokine receptor type 5 (Homo sapiens, UniProt P51681). The experiment in a line: Antagonist activity at human CCR5 expressed in CHO cells assessed as inhibition of MIP-1-alpha-stimulated calcium mobilization. Type of assay: functional, cell-based. The gist of the method:
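Cells expressing human CCR5 (hCCR5/CHO) were stimulated with MIP-1α, and the rise in intracellular calcium was measured. Potency is reported as an IC50 for inhibition of the calcium response.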
On the technique in general: Calcium assays in cells follow changes in intracellular calcium, usually with a dye or a luminescent sensor.

Chains of the proteins cited; added tags and fusions are not shown.
UniProt P51681, whole entry: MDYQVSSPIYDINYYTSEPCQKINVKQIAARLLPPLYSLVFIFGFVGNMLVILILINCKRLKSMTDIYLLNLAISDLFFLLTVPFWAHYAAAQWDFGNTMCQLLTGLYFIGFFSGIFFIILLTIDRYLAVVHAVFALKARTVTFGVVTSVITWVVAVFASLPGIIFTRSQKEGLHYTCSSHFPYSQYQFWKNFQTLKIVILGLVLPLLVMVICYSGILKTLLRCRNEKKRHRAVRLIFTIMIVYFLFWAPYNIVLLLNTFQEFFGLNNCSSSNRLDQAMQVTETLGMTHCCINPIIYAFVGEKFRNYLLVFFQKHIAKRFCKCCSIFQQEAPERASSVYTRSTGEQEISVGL

The target in assay [2] is T1, C-C chemokine receptor type 5. The experiment in a line: Displacement of [125I]MIP1-alpha from human CCR5 expressed in CHO cells. The class given is cell-based. The gist of the method: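 CCR5 binding affinity was measured as inhibition of 125I-MIP-1α binding to hCCR5/CHO cells and reported as an IC50.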

The values below come from ChEMBL document CHEMBL1146303, “Spirodiketopiperazine-based CCR5 antagonists: Lead optimization from biologically active metabolite” (Bioorg Med Chem Lett, 2007).

With `CCCCN1C(=O)[C@@H]([C@H](O)C2CCCCC2)NC(=O)C12CCN(Cc1ccc(Oc3ccccc3)cc1)CC2.Cl`, the IC50 in assay [1] stood at 53 nM; in assay [2], 1.1 nM.

As usually defined, the IC50 is the point on the concentration scale where inhibition reaches its midpoint.
